Consider one substance from paper PMC6127270 (Frontiers in Pharmacology, 2018).

Chains of the proteins cited; added tags and fusions are not shown. Lines headed by an entry give the natural chain unless they say otherwise; changes in a name come on top.
UniProt P41145: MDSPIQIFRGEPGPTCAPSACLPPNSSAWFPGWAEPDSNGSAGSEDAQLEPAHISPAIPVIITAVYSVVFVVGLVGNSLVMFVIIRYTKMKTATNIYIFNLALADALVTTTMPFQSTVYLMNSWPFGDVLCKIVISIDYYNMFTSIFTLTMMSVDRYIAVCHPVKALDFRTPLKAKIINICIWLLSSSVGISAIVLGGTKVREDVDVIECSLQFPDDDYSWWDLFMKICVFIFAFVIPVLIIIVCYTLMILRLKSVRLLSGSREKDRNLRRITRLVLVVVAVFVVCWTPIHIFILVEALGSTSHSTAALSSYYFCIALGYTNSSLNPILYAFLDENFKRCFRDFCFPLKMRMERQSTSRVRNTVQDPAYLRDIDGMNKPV

The experiment deals with human KOR (Homo sapiens, UniProt P41145). Description: [35S]GTPγS binding, CHO-hKOR membranes. It is filed as biochemical. Background: GTPγS is a poorly hydrolysed GTP analogue; its binding reports G protein activation.

For “5α,7α,8β-(-)N-methyl-N-[7-(1-pyrrolidinyl)-1-oxaspiro(4,5) dec-8-yl]benzeneacetamide”, where the note is “read-out: [35S]GTPγS Binding KOR EC50, CHO-hKOR membranes”, the concentration giving a half-maximal response (EC50) – broadly, the concentration giving half of the maximal effect – was found to be 16.7 nM. In addition, under “relative to U69,593”, the “[35S]GTPγS Binding KOR % stim.” value is 100%.
